A selection: hits, their analogues and other compounds. The true share with any hit is near 3.7%.
A549 viability = A549 cytotoxicity, counter-screen for Nrf2 inhibitors. 390,000 tested, 0.16% active. A549 ARE-Fluc cells, CellTiter-Fluor viability, 18-24 h. Potency, µM (series often up to 46 µM), actives largely listed as inhibitors
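A549 ARE-Fluc cells in 5% FBS OPTI-MEM, 5000 cells/well, rested 2 h then exposed to compounds in concentration-response for 18-24 h at 37 °C. Viability by CellTiter-Fluor fluorescence (Ex 405/Em 525) after 30 min; luciferase luminescence (BugLite, 15 min, RT) read afterwards.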
p53 reactivation = restores transcriptional activity of mutant p53; H1299 p53-A138V BP100-luciferase reporter, luminescence, 24 h; Potency, µM (series often up to 92.2 µM), actives largely listed as activators; 320,000 tested, 0.063% active; AID 504706; note: nearly all actives have a fitted effect of over 45% in size
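H1299 (p53-null), stable ts p53-A138V + BP100-Luc; 1000 cells/well, Opti-MEM/10% FBS; cpd 4 pt, 1:5; 24 h, 37 deg C, 5% CO2; detection reagent 10 min RT; luminescence.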
Nrf2 block = inhibitors of Nrf2 signaling | 360,000 tested, 2.1% active | AID 504444 | A549 ARE-Fluc reporter, luciferase luminescence, 18-24 h | Potency, µM (series often up to 46 µM), hits mostly inhibitors; note: nearly all actives have a fitted effect of over 60% in size
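Cells were seeded and rested 2 h, then exposed to compounds for 18-24 h. CellTiter-Fluor was read first as a viability measure. BugLite was added 15 min before the final luminescent read of ARE-luciferase activity in A549 cells.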
ClpP mod = qHTS Assay for Activators of ClpP; ATP-dependent Clp protease proteolytic subunit (Bacillus subtilis (strain 168)), P80244; purified B. subtilis ClpP, FRET peptide cleavage, 20 min; Potency, µM (series often up to 57.5 µM); 340,000 tested, 1.9% active; active = well fitted falling curve with a large enough effect; inconclusive = small, poorly fitted or top-dose-only effect; inactive = no such curve, though single readings can be large or run the other way; note: the source files actives as falling curves though it sought activators and does not explain the sign; nearly all actives have a fitted effect of over 65% in size
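ClpP 10 microg/mL final, pH 8 Tris/KCl buffer with BSA, glycerol, Tween-20; compound pinned in; FRET-FV substrate; RT 20 min; Ex320/Em430; ΔFRET vs ADEP 5.8 microM, DMSO, no enzyme.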
miR-21 FLuc = miR-21 reporter, rising signal; HeLa miR-21 FLuc reporter, luciferase, 48 h; Potency, µM (titrated, usually from 38.3 µM); AID 2288; 340,000 tested, under 10 active; active = well fitted rising curve with a large enough effect; inconclusive = small, poorly fitted or top-dose-only effect; inactive = no such curve, though single readings can be large or run the other way;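 further: miR-21 action dims this reporter so a rising signal means less miR-21 action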
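HeLa cells stably expressing CMV-driven firefly luciferase with a downstream miR-21 binding sequence, endogenously expressing miR-21, were treated with titrations (up to about 40uM final) for 48 hours at 37 degree Celsius. Luciferase luminescence was read after lysis.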
Nrf2 ARE act = Nrf2 pathway activation; AREc32 ARE-luciferase reporter (MCF7-derived line), luminescence, 24 h; 410,000 tested, 0.31% active; Potency, µM (doses to about 46.1 µM), usual class: activators; note: nearly all actives have a fitted effect of over 65% in size
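Each well held 1000 AREc32 cells, which were incubated with compound for 24 hr at 37 deg C after overnight attachment, and ARE reporter activity was quantified by firefly luciferase luminescence.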
Hits are given with their value; - = inactive; ? = inconclusive; . = no result given; [ ] = dose if it differs, or a comment. Unless noted, calls come from the whole dose curve; as a rule, active = well fitted curve in the direction sought with a large enough effect; inconclusive = small, poorly fitted or top-dose-only effect, or another doubt; inactive = no such curve, though single readings can be large; an effect the other way counts as inactive or inconclusive.

Chains of the proteins cited; added tags and fusions are not shown.
ATP-dependent Clp protease proteolytic subunit (Bacillus subtilis (strain 168)), P80244, UniProt P80244, whole entry, looked up: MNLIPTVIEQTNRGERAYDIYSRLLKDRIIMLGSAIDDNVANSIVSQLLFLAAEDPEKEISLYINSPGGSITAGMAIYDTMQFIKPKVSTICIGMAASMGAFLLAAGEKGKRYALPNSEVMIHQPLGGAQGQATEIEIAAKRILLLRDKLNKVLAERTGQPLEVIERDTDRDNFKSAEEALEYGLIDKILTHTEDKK

SMILES | A549 viability | p53 reactivation | Nrf2 block | ClpP mod | miR-21 FLuc | Nrf2 ARE act
c1ccc(-c2cc3ccccc3cn2)cc1 | - | ? | ? | - | . | -
COc1ccc(-c2cc3cc4c(cc3cn2)OCO4)cc1 | - | - | ? | 14.1µM | . | -
COc1cc(OC)cc(-c2cc3cc4c(cc3cn2)OCO4)c1 | - | ? | ? | ? | . | -
c1ccc(-c2cc3cc4c(cc3cn2)OCO4)cc1 | ? | 8.91µM | ? | - | . | -
N#CC1=C(N)N(c2ccc(Cl)cc2)C2=C(C(=O)CCC2)C1c1cc(CN2CCOCC2)cs1 (stereo not given) | - | . | - | - | - | -
Cc1cccc(S(=O)(=O)Nc2cccc(-c3ccc(N4CCCCC4)nn3)c2)c1 | - | . | ? | - | - | -
COc1ccc(-c2cc(C#N)nc(Cl)n2)cc1 | - | - | - | - | - | ?
COc1ccc(-c2cc(C#N)nc(Oc3ccc(Cl)cc3)n2)cc1 | - | - | - | 7.94µM | - | -
CCN(CC)c1nc(C#N)cc(-c2ccc(OC)cc2)n1 | - | - | ? | 35.5µM | - | -
Cc1ccccc1CNC(=O)C1=Cc2ccccc2OC1 | - | . | . | - | - | -
CC(=O)N1c2ccc3ccccc3c2C(C)CC12CCCCC2 (stereo not given) | - | - | ? | - | - | -
CC1CC2(CCCCC2)Nc2ccc3ccccc3c21 (stereo not given) | - | - | - | 17.8µM | - | -
CCC(COC)Oc1cc(NCc2ccccc2)c2ncn(C(C)C)c2c1 (stereo not given) | ? | - | 18.4µM | - | . | -
CCC(CO)Oc1cc(NCc2ccccc2)c2ncn(C(C)C)c2c1 (stereo not given) | - | - | - | - | . | -
CC(C)n1cnc2c(NCc3ccccc3)cc(N[C@H](C)CO)cc21 | 23.1µM | - | ? | - | . | -
CCC(COC(=O)c1ccccc1)Oc1cc(NCc2ccccc2)c2ncn(C(C)C)c2c1 (stereo not given) | 16.4µM | - | 23.1µM | - | . | -
CCCCOc1cc(NCc2ccccc2)c2ncn(C(C)C)c2c1 | ? | - | ? | - | . | -
COc1ccc(CNC(=O)c2cc3c(=O)n(Cc4ccco4)ccc3nc2C)c(OC)c1 | - | . | - | ? | - | -
CC1CCN(C(=O)Cn2ncc3c4ccccc4n(Cc4ccc(Cl)cc4)c3c2=O)CC1 | - | . | - | - | - | -
c1ccc(OCCCCn2cnc3ccccc32)cc1 | - | - | 23.1µM | - | - | -
Cc1ccccc1OCCCCn1c(CO)nc2ccccc21 | - | - | 23.1µM | . | - | -
Cc1ccccc1OCCCCn1cnc2ccccc21 | - | - | 6.51µM | - | - | -
COc1cccc(C(C)(O)c2nc(-c3cnc4ccccc4c3)cs2)c1 (stereo not given) | . | . | . | - | . | -
O=[N+]([O-])c1ccc(C(c2sc3nc(-c4ccco4)nn3c2O)N2CCN(c3cccc(Cl)c3)CC2)cc1 (stereo not given) | - | . | . | - | - | -
Cc1c(Cl)cccc1NC(=O)Cn1nc(C)c2sc3ccccc3c2c1=O | - | . | - | - | - | -
SMILES | A549 viability | p53 reactivation | Nrf2 block | ClpP mod | miR-21 FLuc | Nrf2 ARE act
COc1ccc(N=C(N)SCc2ccccn2)cc1 | - | 35.5µM | - | - | - | -
COc1ccc(-c2nnc(SCc3ccccn3)n2C)cc1 | - | - | ? | - | - | -
O=c1oc2ccccc2c(Nc2ccc(F)cc2)c1[N+](=O)[O-] | - | - | - | - | - | -
O=c1oc2ccccc2c(Nc2ccc(Cl)cc2)c1[N+](=O)[O-] | - | - | 16.4µM | - | - | -
CCC(Cn1nnc2ccccc2c1=O)NC(=O)Nc1cc(OC)cc(OC)c1 (stereo not given) | - | . | - | - | - | -
Cc1cccc2cc(-c3ccccc3)c(-c3ccccc3)c[n+]12 | - | - | 23.1µM | - | ? | -
CCOC(=O)c1c(NC(=O)/C=C/c2ccc(Cl)cc2)sc2c1CCC(C)C2 (stereo not given) | - | . | - | - | - | -
CC(=O)c1cccc(NC(=O)C(CC(C)C)NS(=O)(=O)c2ccc3c(c2)CCN3C(C)=O)c1 (stereo not given) | ? | . | - | - | - | -
CCN(CC)C(=O)COC(=O)c1cc(-c2ccc(OC)cc2)nc2ccccc12 | - | - | 23.1µM | ? | - | -
COc1ccc2cc(-c3cc(C(=O)OCC(=O)NC4CCS(=O)(=O)C4)c4ccccc4n3)ccc2c1 (stereo not given) | - | ? | 11.6µM | ? | - | -
CCNC(=O)COC(=O)c1cc(-c2ccc(OC)cc2)nc2ccccc12 | -[1.84 µM] | - | - | - | - | -
O=C(COC(=O)c1c2c(nc3ccccc13)/C(=C/c1cccc([N+](=O)[O-])c1)CCC2)NC1CCS(=O)(=O)C1 (stereo not given) | - | - | 23.1µM | - | - | -[9.22 µM]
COc1ccc(-c2cc(C(=O)N3CCN(c4cccc(C)c4C)CC3)c3ccccc3n2)cc1OC | - | - | ? | 25.1µM | . | -
CN(C(=O)COC(=O)c1c2c(nc3ccccc13)/C(=C/c1cccc([N+](=O)[O-])c1)CCC2)C1CCS(=O)(=O)C1 (stereo not given) | - | - | - | - | - | -
CC(NC(=O)Cc1ccc(NC(=O)N2CCSc3ncccc32)cc1)c1ccccc1 (stereo not given) | - | . | ? | - | - | -
O=C(Cn1c(SCc2cccc(F)c2)nc2cccnc21)Nc1ccc(F)c(Cl)c1 | - | . | ? | - | - | -
CCn1nc(C)c2c(-c3ccccc3)cc(=O)n(C(C)C(=O)Nc3ccc(OC)c(OC)c3)c21 (stereo not given) | - | . | - | - | - | -
CCOc1ccc(-c2cc(C(=O)N3CCC(C)CC3)c3ccccc3n2)cc1 | - | . | - | 31.6µM | . | -
CCOc1ccc(-c2cc(C(=O)NC(C)c3ccccc3)c3ccccc3n2)cc1 (stereo not given) | - | . | . | - | - | -
CCOc1ccc(-c2cc(C(=O)O)c3ccccc3n2)cc1 | - | - | ? | 35.5µM | - | -
Cc1cccc(OCC(=O)Nc2ccc(S(=O)(=O)N(Cc3ccccc3)c3ccccc3)cc2)c1 | - | . | - | - | - | -
Cc1nc(-c2ccc(S(=O)(=O)N3CCN(C4c5ccccc5-c5ccccc54)CC3)s2)cs1 | - | - | - | 28.2µM | - | -
Cc1nc(-c2ccc(S(=O)(=O)N3CCCN(CCc4ccccc4)CC3)s2)cs1 | - | - | ? | . | - | -
Cc1ccc(CNc2ncnc3onc(C)c23)cc1 | - | . | 8.2µM | - | ? | -

Screening data as filed in PubChem.
